Amino acid sequences for entries named in this document (tags omitted).
UniProt P29371, whole entry: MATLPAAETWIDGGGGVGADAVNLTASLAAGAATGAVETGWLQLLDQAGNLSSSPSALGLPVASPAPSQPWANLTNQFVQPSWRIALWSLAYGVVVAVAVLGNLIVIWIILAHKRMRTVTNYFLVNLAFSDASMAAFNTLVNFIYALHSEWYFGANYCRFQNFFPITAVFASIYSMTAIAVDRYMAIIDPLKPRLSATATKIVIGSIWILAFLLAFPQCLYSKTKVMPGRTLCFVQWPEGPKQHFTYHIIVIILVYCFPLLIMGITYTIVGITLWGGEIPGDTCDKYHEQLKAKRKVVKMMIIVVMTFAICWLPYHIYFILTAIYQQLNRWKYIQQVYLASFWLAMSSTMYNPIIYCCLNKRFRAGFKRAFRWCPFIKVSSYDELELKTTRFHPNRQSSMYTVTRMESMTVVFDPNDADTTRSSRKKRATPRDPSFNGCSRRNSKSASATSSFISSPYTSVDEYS
UniProt P21452, whole entry: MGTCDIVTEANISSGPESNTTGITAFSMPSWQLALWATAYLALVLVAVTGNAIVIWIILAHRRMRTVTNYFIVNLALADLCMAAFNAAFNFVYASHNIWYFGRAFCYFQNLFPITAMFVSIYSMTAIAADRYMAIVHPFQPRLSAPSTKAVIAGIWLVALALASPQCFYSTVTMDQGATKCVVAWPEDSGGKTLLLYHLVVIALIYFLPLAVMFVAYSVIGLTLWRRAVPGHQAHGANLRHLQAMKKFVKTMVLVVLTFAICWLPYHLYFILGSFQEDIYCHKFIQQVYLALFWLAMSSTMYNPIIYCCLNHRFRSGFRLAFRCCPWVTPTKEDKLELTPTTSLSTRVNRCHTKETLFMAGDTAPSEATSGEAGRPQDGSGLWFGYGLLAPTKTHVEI

According to US20070219214A1, “Dual NK2/NK3-antagonists, pharmaceutical compositions comprising them, and processes for their preparation” (Solvay pharmaceuticals GmbH, priority 2006, published 2007):

Key:
human NK3 receptor [1] = biological target: T1, human NK3 receptor (Homo sapiens, UniProt P29371); test: Binding potency of the test substances to NK3-receptors in vitro ([3H]-SR 142801 displacement); details: human NK3-receptor in CHO cell membranes, [3H]-SR 142801 (osanetant); average of at least three measurements
human NK3 receptor [2] = biological target: T1, human NK3 receptor; test: Functional cellular test, Ca2+ measurements using aequorin for NK3 activity; assay type: cell-based; details: cell line with human NK3 receptor and apoaequorin, agonist senktide 5x10-8 M
human NK2-receptor [3] = biological target: T2, human NK2-receptor (Homo sapiens, UniProt P21452); test: Binding potency of the test substances to NK2-receptors in vitro ([3H]-SR 48968 displacement); details: human NK2-receptor in CHO cell membranes, [3H]-SR 48968 (saredutant); average of at least three measurements
human NK2-receptor [4] = biological target: T2, human NK2-receptor; test: Functional cellular test, Ca2+ measurements using FLIPR for NK2 activity; details: CHO cells, agonist NKA 10^-7 M;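 also: CHO cells stably expressing the human receptor, loaded with a calcium dye, antagonist inhibition of ligand-evoked intracellular calcium rise read as peak fluorescence change on FLIPR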

pKi, binding potency to NK3-receptors (human NK3 receptor [1]): 8.0
pA2 data for NK3 (human NK3 receptor [2]): 8.1
pKi, binding potency to NK2-receptors (human NK2-receptor [3]): 8.7
pA2 data for NK2 (human NK2-receptor [4]): 8.6
SMILES: CC(=O)Oc1ccccc1C(=O)N(C)CC(CCN1CCC(C(=O)N(C)C)(N2CCCCC2)CC1)c1ccc(Cl)c(Cl)c1 (stereo not shown)
